# Results as given in publication PMC12153294 (mBio, 2025).
# Tested on: JHMV
# Type: cell-based, murine hepatitis virus (MHV)
# Conditions: 150 μM, DBT cells
smiles,measurement,value
COC(=O)[C@H](Cc1c[nH]c2ccccc12)Nc1ncnc2[nH]ccc12 [Compound 5a],Inhibition of infectious virus production,~ 0.5 logs
